Our source for the Solubility and solubility in water values is patent publication EP4834348A1.

Converted amounts (≈) assume the structure as drawn.

The data set can be described thus: Solubility test of Compound 1 in various media and solvents (25°C). The settings on record: for Solubility: 25°C. As for the experimental part:
The inventors tested the solubility of Compound 1 (API) in various common media. Table 1 Solubility of Compound 1 in various solvents (25°C)

As for `N#CCC1(n2cc(-c3ncnc4[nH]ccc34)c(N)n2)CN(C2CCN(C(=O)c3ccnc(C(F)(F)F)c3F)CC2)C1`, the Solubility reads like this: (Purified water) 22.5 µg/mL (≈ 39.6 µM); (pH1.0 hydrochloric acid medium) 1240.7 µg/mL (≈ 2180 µM); (pH3.0 citric acid buffer) 2921 µg/mL (≈ 5140 µM); (pH4.5 sodium acetate buffer) 45.8 µg/mL (≈ 80.6 µM); (pH6.8 phosphate buffer) 19.9 µg/mL (≈ 35 µM). Further, where the note is “water at 25°C, background statement”, the solubility in water result is “less than 1 mg/mL”.

One may read the Solubility as the dissolved amount per volume that the medium holds. A high value points to much dissolved substance.
